Results reported in US6713488B2 (priority 2000, dated 2004).

Protein sequences, listed by entry. Tags and fused reporters are not part of them.
UniProt P35372, whole entry: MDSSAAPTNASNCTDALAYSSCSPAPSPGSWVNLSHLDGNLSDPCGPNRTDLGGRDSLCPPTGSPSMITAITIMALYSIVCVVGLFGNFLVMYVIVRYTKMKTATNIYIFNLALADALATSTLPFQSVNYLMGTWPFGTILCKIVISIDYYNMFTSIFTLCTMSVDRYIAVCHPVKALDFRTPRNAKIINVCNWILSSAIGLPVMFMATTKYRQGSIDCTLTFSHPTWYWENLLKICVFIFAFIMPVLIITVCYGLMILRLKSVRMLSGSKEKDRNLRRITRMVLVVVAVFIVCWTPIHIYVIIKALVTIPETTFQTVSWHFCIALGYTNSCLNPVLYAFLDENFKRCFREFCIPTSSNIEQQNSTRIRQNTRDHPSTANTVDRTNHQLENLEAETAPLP

Key:
human MOR [1] = molecular target: T1, human MOR (Homo sapiens, UniProt P35372); format: biochemical
T1 construct: FLAG (N); expressed in transfected cells; host or cells: HEK 293

human MOR [2] = molecular target: T1, human MOR; format: cell-based

“D-Phe-Cys-Tyr-D-Trp-Arg-Thr-Pen-Thr-Nh2 [CTAP, reference compound]” was tested, and the “blockade of inverse-agonistic effects of β-CNA” value (human MOR [1]) was “blocked”, the “effect on basal 35S-GTPγS binding activity” value (human MOR [1]) was “no significant effect” and the “effect on forskolin stimulated cAMP levels” value (human MOR [2]) was “no effect”.
